The target of the assay is T1, Tyrosine-protein kinase Mer (Mus musculus) (UniProt Q60805).
T1 sequence (whole entry): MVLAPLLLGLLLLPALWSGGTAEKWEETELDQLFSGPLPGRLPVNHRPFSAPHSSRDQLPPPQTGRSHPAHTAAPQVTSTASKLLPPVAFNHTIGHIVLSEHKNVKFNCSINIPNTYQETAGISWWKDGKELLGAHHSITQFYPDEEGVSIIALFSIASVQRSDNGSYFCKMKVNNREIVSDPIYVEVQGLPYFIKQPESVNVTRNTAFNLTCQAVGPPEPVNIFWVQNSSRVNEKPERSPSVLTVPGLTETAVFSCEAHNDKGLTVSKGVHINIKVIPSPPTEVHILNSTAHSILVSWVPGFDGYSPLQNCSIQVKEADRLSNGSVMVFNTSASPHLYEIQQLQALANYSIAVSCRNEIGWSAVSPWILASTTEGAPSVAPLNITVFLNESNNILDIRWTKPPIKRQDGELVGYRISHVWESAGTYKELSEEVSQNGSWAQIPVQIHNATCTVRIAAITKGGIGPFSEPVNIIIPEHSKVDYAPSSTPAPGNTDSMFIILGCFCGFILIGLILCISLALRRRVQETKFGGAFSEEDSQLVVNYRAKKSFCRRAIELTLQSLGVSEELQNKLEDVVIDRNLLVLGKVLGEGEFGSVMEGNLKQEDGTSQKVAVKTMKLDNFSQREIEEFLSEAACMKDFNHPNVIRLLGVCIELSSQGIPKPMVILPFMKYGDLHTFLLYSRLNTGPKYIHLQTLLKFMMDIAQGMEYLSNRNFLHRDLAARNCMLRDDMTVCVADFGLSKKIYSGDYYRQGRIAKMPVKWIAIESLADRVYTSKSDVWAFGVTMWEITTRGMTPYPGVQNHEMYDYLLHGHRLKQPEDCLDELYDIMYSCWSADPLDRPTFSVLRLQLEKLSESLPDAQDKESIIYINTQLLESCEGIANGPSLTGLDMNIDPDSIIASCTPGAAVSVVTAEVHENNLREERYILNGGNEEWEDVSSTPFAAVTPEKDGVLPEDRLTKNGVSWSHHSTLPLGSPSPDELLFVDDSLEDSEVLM
In words: In vivo inhibition of MERTK in NSG mouse xenografted with human 697 cells assessed as reduction in MERTK phosphorylation at 120 mg/kg, po preincubated for 10 mins followed by vanadate addition and measured after 10 mins by immunoblot analysis. Type of assay: functional, organism-based. The following applies: time 20.0 min. For orientation: In xenograft studies the graft and the host belong to different species.

Here are results for one compound from ChEMBL document CHEMBL4837224, “UNC5293, a potent, orally available and highly MERTK-selective inhibitor” (Eur J Med Chem, 2021).

Active and inactive are the calls of the source. No cut-off for these calls is given here.

`CCC[C@H](C)Nc1ncc2c(C3CCN(C(=O)c4cc(C)nc(C)c4)CC3)cn([C@H]3CC[C@H](O)CC3)c2n1`: the inhibition entry is “Active”.
